{"source": "patent US10918654B1", "about": "“Rutin compositions” (Alps Pharmaceutical Ind. Co., Ltd., priority 2019, dated 2021)", "experiment": "Stability of the flavonoid in aqueous L-arginine/sodium ascorbate solution at 50° C., intact amount by HPLC", "type": "physicochemical", "settings": "for amount of intact flavonoid remaining, of the initial amount in the solution: dissolved in water with L-arginine and sodium ascorbate, HPLC", "protocol": "A composition containing rutin, L-arginine, and ascorbate was prepared in water by mixing 0.0071 mol rutin with an aqueous solution containing 0.020 mol L-arginine, heating the mixture to 80° C. until the rutin dissolved completely, and adding 0.0010 mol sodium ascorbate.\nAfter cooling the above solution, the stability of rutin was tested by heating the mixture to 50° C. and quantifying the amount of intact rutin remaining by HPLC after 0 h, 5 h, and 24 h.\nA similar study was performed to assess the stability of a flavonoid related to rutin, i.e., catechin, after dissolving it with L-arginine and sodium ascorbate. […] It was quite unexpected that only 2.8% of the rutin degraded after 24 h, as compared to 97.7% of the catechin under identical conditions."}
{"substance": "catechin", "values": [{"measurement": "amount of intact flavonoid remaining, of the initial amount in the solution", "setting": "5 h at 50° C.", "value": 30.8, "unit": "%"}, {"measurement": "amount of intact flavonoid remaining, of the initial amount in the solution", "setting": "24 h at 50° C.", "value": 2.3, "unit": "%"}, {"measurement": "flavonoid degraded", "setting": "after 24 h at 50° C., with L-arginine and sodium ascorbate", "value": 97.7, "unit": "%"}]}
